Data from US12606523B2, “Deuterated organic compounds and uses thereof” (ENGRAIL THERAPEUTICS, INC., priority 2022, dated 2026).

Tested on: Sprague Dawley rats
Assay: Conditioned Avoidance Response test
Conditions: rat, 0.5 mg/kg i.p. 30 minutes prior to test

## Cc1nc2n(c(=O)c1CCN1CCC(c3noc4cc(F)ccc34)CC1)CCCC2 [risperidone, Risperidone]
  escape failures compared to vehicle: increase
